{"source": "patent US11713331B2", "about": "“Benzene 1,4-bis(bisphosphonic acid)-based metal complexes, method of synthesis and applications thereof” (priority 2020, dated 2023)", "assay": "Dissolution profile in fasted-state simulated gastric fluid (release of BBPA)", "assay_type": "physicochemical", "conditions": "FaSSGF pH 1.60, 37° C., 72 h", "data": [{"substance": "benzene 1,4-bis(bisphosphonic acid) [BBPA]", "values": [{"measurement": "% Released (BBPA)", "value": 99, "unit": "%"}]}]}
